Assay: Hydrophobicity: retention time during reverse phase HPLC
Type: physicochemical
Details: Acquity CSH C18; pH 7.2 buffer/CH3CN gradient; 40° C.
Description: The retention time (RT) during reverse phase HPLC was taken as a measure of hydrophobicity of an N-terminally modified peptide or oligopeptide of the invention, where the connection is: The longer the RT, the more hydrophobic N-terminally modified peptide or oligopeptide. The following running conditions were applied during HPLC analysis:
Buffer B: 70% (v/v) aq. CH3CN
In the case of “N-dodecanoyl-βAla-βAla-Pro-Phe-Pro-OH [Example 6]”, the “RT (retention time during reverse phase HPLC as a measure of hydrophobicity)” value (from here on “RT”) is reported as 5.96 min. In the case of “N-dodecanoyl-Gly-Ala-Pro-Tyr-OH [Example 37]”, the “RT” value is reported as 5.41 min. With “N-dodecanoyl-Ile-Ala-Ala-Pro-Tyr-OH [Example 40]” the “RT” value was 7.77 min.
